What was measured:
Format in all cases: biochemical
Dopamine (DA) uptake = Dopamine (DA) uptake (Rattus norvegicus, UniProt P23977); experiment: Dopamine (DA) uptake inhibitory activity using rat brain synaptosome (corpus striatum); settings: read-out: 50% Inhibitory concentration, tritium-labeled DA 2 nM, 37° C. ten minutes
Serotonin (5-HT) uptake = Serotonin (5-HT) uptake (Rattus norvegicus, UniProt P31652); experiment: Serotonin (5-HT) uptake inhibitory activity using rat brain synaptosome (frontal cortex); settings: read-out: 50% Inhibitory concentration, tritium-labeled 5-HT 8 nM, 37° C. 10 minutes
[1] = target: Norepinephrine (NE) uptake (Rattus norvegicus, UniProt Q9WTR4); experiment: Norepinephrine (NE) uptake inhibitory activity using rat brain synaptosome (hippocampus); settings: read-out: 50% inhibitory concentration, tritium-labeled NE 12 nM, 37° C. ten minutes

Chains of the proteins cited; added tags and fusions are not shown. Residues count along the entry.
UniProt P23977, whole entry: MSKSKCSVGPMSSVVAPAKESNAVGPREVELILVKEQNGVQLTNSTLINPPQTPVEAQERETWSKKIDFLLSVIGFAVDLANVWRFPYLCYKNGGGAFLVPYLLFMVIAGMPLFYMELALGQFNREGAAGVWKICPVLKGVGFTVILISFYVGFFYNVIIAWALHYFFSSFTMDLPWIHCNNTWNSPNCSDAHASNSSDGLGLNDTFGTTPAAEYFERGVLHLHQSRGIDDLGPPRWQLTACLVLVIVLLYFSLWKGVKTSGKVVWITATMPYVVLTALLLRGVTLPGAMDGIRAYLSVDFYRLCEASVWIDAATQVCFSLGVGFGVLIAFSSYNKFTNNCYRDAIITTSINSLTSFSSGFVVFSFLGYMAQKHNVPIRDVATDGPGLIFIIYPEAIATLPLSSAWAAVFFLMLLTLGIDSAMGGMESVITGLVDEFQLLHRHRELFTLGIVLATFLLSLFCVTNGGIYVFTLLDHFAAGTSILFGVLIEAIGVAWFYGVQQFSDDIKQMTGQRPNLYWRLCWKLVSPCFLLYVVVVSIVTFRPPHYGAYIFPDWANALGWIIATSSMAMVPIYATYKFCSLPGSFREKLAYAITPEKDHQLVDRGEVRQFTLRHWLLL
UniProt P31652, whole entry: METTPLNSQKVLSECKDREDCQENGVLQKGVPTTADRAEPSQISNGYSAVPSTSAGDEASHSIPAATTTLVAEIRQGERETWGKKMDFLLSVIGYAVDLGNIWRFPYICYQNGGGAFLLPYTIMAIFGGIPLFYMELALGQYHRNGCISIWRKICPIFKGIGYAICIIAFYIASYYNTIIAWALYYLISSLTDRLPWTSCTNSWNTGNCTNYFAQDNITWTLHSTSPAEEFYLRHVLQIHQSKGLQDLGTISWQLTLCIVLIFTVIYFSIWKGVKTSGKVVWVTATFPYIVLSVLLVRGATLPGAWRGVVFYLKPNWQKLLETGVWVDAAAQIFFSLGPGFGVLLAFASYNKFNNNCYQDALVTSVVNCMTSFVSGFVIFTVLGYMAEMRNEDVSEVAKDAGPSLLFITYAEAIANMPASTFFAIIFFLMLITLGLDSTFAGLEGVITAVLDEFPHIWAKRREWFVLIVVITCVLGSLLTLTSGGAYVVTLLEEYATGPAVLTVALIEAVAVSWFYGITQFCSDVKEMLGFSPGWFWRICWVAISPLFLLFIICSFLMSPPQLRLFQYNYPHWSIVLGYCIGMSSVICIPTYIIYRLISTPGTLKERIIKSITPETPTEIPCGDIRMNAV
UniProt Q9WTR4, 1-597: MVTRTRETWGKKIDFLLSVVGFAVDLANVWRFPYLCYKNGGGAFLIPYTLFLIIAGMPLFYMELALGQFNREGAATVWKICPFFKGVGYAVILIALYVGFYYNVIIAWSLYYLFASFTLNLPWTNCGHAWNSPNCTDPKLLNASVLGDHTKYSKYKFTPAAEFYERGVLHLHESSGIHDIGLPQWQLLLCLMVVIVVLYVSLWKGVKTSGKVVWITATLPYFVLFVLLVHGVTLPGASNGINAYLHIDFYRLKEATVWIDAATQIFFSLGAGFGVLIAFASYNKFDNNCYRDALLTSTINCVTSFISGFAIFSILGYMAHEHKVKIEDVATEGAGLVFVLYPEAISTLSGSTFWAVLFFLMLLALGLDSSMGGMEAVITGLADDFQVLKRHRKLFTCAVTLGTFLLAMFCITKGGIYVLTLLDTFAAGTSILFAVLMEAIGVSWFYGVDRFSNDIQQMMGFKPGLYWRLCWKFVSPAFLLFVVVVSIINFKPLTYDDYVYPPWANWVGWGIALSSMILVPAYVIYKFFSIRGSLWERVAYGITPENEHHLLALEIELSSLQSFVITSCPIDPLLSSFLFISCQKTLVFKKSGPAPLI

In the case of `CC1(C)CN(c2ccc3cc(O)ccc3c2)[C@@H]2CCCC[C@@H]2N1`, the IC50 (Dopamine (DA) uptake) is reported as 9.7 nM, the IC50 (Serotonin (5-HT) uptake) is reported as 4.9 nM and the IC50 [1] is reported as 3.1 nM.

From patent US11273168B2, “Methods of treating anxiety by administering a substituted quinolone” (OTSUKA PHARMACEUTICAL CO., LTD., priority 2010, dated 2022)
